Measured values published in patent US6822100B2 (Bristol-Myers Squibb Company, priority 2001, dated 2004).

The chains behind the UniProt entries cited, without tags or fusion partners. Where a name states a change or a piece, a line headed by the entry shows the natural chain unless it says otherwise.
UniProt P14416, whole entry: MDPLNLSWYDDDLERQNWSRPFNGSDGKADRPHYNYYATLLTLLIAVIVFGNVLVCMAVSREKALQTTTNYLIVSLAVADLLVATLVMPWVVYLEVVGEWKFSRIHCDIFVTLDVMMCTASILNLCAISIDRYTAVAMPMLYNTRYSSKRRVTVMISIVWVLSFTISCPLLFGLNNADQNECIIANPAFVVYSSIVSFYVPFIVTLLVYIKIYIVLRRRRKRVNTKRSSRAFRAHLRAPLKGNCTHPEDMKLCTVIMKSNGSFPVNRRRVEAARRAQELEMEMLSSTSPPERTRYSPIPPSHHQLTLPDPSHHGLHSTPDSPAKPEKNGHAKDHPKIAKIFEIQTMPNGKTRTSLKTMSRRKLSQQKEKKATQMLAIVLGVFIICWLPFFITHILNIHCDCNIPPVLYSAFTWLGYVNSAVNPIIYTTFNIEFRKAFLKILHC

Target: recombinant human dopamine D2L receptors (Homo sapiens, UniProt P14416)
Assay: Dopamine Binding Assay
Details: read-out: D2L Ki; HEK-D2L cell membranes, 150 pM [3H]-spiperone, Cheng and Prusoff

## CC(C)OC(=O)NCCCN(C)CC1CC1c1c[nH]c2ccc(C#N)cc12 (stereo not shown)
  Ki: > 1000 nM
